Laboratory results: patent US20070010446A1, “METHODS FOR TREATING INFLAMMATION USING THYROID STIMULATING HORMONE” (ZymoGenetics, Inc., priority 2003, published 2007)

Columns and labels:
[1] = system: human PBMC, lymphoid cells; assay: TSH-biotin binding by flow cytometry (SA-PE staining); conditions: TSH-biotin 10 ug/ml
C57BL/6 mice [2] = assay: LPS-induced mild endotoxemia mouse model, serum cytokines by ELISA; type: in vivo
Method: The LPS-induced mild endotoxemia model is an in vivo model designed to mimic acute endotoxemia/sepsis by challenging mice with a low, non-lethal dose of bacterial endotoxin (lipopolysaccharide, LPS). Serum is collected at various timepoints (1-72 hours) after intraperitoneal LPS injection and analyzed for altered expression of a wide variety of pro- and anti-inflammatory cytokines and acute phase proteins that mediate the inflammatory response. The model provides a means to assess the potential anti-inflammatory effects of therapeutic candidates during a robust inflammatory response.
In this model, an initial experiment is run to determine the production of proinflammatory cytokines in response to an injection of LPS. For example, six-month old Balb/c (Charles River Laboratories, Wilmington, Mass.) female mice are injected with 25 μg LPS (Sigma) in sterile PBS intraperitoneally (i.p.). Serum samples are collected at 0, 1, 4, 8, 16, 24, 48 and 72 hours later, and are assayed for serum levels of inflammatory mediators, such as IL-1β, IL-6, TNFα, and IL-10. Commercially available ELISA kits (Biosource International, Camarillo, Calif.) can be used to deterime the serum levels. In this assay TNFα levels and IL-1β levels can be measured at 1 hour post-LPS injection, and IL-6, IL-10 and IL-10 can be measured at 4 hours post injection. From these inflammatory mediators, one or more is chosen as a representative biological marker(s) for the LPS model of mild endotoxemia.
Next, C57BL/6 mice (Charles River Laboratories; 5 mice/group) are treated i.p. with PBS, or the test compound in PBS 1 hour prior to LPS challenge. The mice are then challenged with 25 ug of LPS i.p. and are bled at 1 hour and 4 hours after LPS injection. The level of the representative biological marker(s) is analyzed by ELISA.
Suppression of the production of the pro-inflammatory cytokines (for example, TNFα) while enhancement of the expression of anti-inflammatory cytokines (for example, IL-6) will show the anti-inflammatory effects of the test compound. […]

C57BL/6 mice [3] = assay: Delayed Type Hypersensitivity (DTH), OVA ear challenge; type: in vivo; conditions: for CHANGE IN EAR THICKNESS, LEFT EAR (PBS) / CHANGE IN EAR THICKNESS, RIGHT EAR (OVA): TSH 2.0 mg/kg
thymus = conditions: mouse, in vivo
NCI-H295R cells = assay: CRE-luciferase reporter assay of cAMP-mediated gene induction in adrenal cortex cells; type: cell-based, human
Description: Summary: A human adrenal cortex cell line, NCI-H295R, was used to study signal transduction of TSH. NCI-H295R was transduced with recombinant adenovirus containing a reporter construct, a firefly luciferase gene under the control of cAMP response element (CRE) enhancer sequences. This assay system detects cAMP-mediated gene induction downstream of activation of Gs-coupled GPCR's (G-protein coupled receptors). […] Typically, TSH elicited a maximal response of 15-25-fold luciferase induction above control media.
NCI-H295R cells were obtained from the ATCC(CRL-2128, Manassas, Va.) and cultured in growth medium as follows: 1:1 mixture of Dulbecco's modified Eagle's medium and Ham's F12 medium with L-glutamine (D-MEM/F-12; GIBCO, cat.# 11320-033) containing 25 mM HEPES buffer (GIBCO, Invitrogen, Carlsbad, Calif., cat.# 15630-080), 1 mM sodium pyruvate (GIBCO, cat.# 11360-070), 1% ITS+1 media supplement (Sigma St. Louis, Mo. cat# 12521) and 2.5% Nu-Serum I (BD Biosciences, Lexington, Ky. cat.#355100). Cells were cultured at 37° C. in a 5% CO2 humidified incubator. […]
Promega's Luciferase Assay System (Promega, Madison, Wis., cat. # E1500) was used to process the treated cells. […] Luciferase activity was measured on a microplate luminometer (PerkinElmer Life Sciences, Inc., model LB 96V2R) following automated injection of luciferase assay substrate.

[4] = Expt 1 (n = 8), treatment i.p. at challenge (d 7), two hours prior, Dex 1.5 mg/kg, 24 hours after challenge
[5] = Expt 2 (n = 7), treatment i.p. once a day at sensitization (d 0-4), Dex 1.5 mg/kg, challenge day 7, measured day 8
[6] = Expt 3 (n = 7), adrenalectomized (ADX) mice, treatment i.p. at challenge (d 7), Dex 1.5 mg/kg

Question: Which results are given for “TSH: heterodimeric protein hormone; alpha subunit SEQ ID NO:3 and beta subunit SEQ ID NO:6, non-covalently associated”?
Answer: binding to lymphoid cells (in words) [1]: absence of such staining; anti-inflammatory effect in LPS model (in words) (C57BL/6 mice [2]; TSH 2 mg/kg in PBS, TNFα suppression and IL-6 enhancement): has anti-inflammatory effects in this model; TNFα (1 hr) +/− S.E. (C57BL/6 mice [2]; serum 1 hour after 25 ug LPS i.p., treatment i.p. 1 hour prior, Dex 0.015 mg/kg, TSH 2.0 mg/kg, Thyroxine 0.05 mg/kg, PBS group 6990.8): 4345.5 ± 385.2 pg/mL; IL-6 (4 hr) +/− S.E. (C57BL/6 mice [2]; serum 4 hours after 25 ug LPS i.p., treatment i.p. 1 hour prior, Dex 0.015 mg/kg, TSH 2.0 mg/kg, Thyroxine 0.05 mg/kg, PBS group 45.6): 73.1 ± 11.2 ng/mL; CHANGE IN EAR THICKNESS, LEFT EAR (PBS) (C57BL/6 mice [3]; [4]): 0.21 +/− 1.29 ×10^−3 inch; CHANGE IN EAR THICKNESS, RIGHT EAR (OVA) (C57BL/6 mice [3]; [4]): 3.98 +/− 1.00 ×10^−3 inch; DTH reaction, ear thickness vs PBS controls (in words) (C57BL/6 mice [3]; Expt 1, treatment i.p. two hours prior to OVA re-challenge, Dex 1.5 mg/kg, TSH 2 mg/kg): lesser degree of ear thickness compared to controls; CHANGE IN EAR THICKNESS, LEFT EAR (PBS) (C57BL/6 mice [3]; [5]): 1.26 +/− 0.99 ×10^−3 inch; CHANGE IN EAR THICKNESS, RIGHT EAR (OVA) (C57BL/6 mice [3]; [5]): 6.07 +/− 0.67 ×10^−3 inch; DTH reaction (in words) (C57BL/6 mice [3]; Expt 2, treatment i.p. once a day days 0 to 4 (sensitization phase)): significantly inhibited the DTH reaction; CHANGE IN EAR THICKNESS, LEFT EAR (PBS) (C57BL/6 mice [3]; [6]): 0.14 +/− 0.50 ×10^−3 inch; CHANGE IN EAR THICKNESS, RIGHT EAR (OVA) (C57BL/6 mice [3]; [6]): 4.81 +/− 1.31 ×10^−3 inch; ear swelling in response to OVA re-challenge (in words) (C57BL/6 mice [3]; Expt 3, adrenalectomized (ADX) mice): reduced ear swelling; relative proportion of each thymocyte subset (CD4 SP, CD8 SP, CD4+CD8+, CD4−CD8−) (thymus): not significantly different from that of the PBS-treated group; thymic atrophy (in words) (thymus): neither the thymus weight nor the overall thymocyte cell counts were significantly affected; maximal response, luciferase induction above control media (NCI-H295R cells; NCI-H295R transduced with CRE-luciferase reporter, four hours incubation with purified TSH heterodimer): 15-25 fold; induction of luciferase activity (in words) (NCI-H295R cells; NCI-H295R with CRE-luciferase reporter, compared with 10 μM forskolin): dose-dependent induction of luciferase activity equal to or higher than that induced by 10 μM forskolin
